# High-throughput results: PubChem BioAssay, Broad Institute
# UUG fidelity = modulators of yeast start codon fidelity, primary screen, whole organism, S. cerevisiae, single point, plate reader | activity score, % at 18.7 µM | 350,000 tested, 0.13% active | S. cerevisiae UUG-firefly luciferase reporter, luminescence/redox ratio;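 active means replicate mean at a twofold rise or more, about +100% in these data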;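 further: firefly luciferase made from a UUG start codon reports start codon fidelity; reporter light over untreated wells divided by growth signal over untreated wells; some hits fall short of that in this replicate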
# E-sel inducer = induces E-selectin expression in human endothelial cells | P16581 | HUVEC E-selectin immunofluorescence imaging; normalized: neutral wells 0, TNF-alpha wells 100 | activation, % at 7.58 µM | 0.37% of 260,000 active | AID 686992;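 active = mean E-selectin-positive cell signal at least 10% of the positive control, reached in at least 60% of replicates, without over 20% cell loss; inconclusive = no rule given, readout overlaps actives, possibly toxicity-flagged; inactive = the rest, including those meeting only one limit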
#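 Material: HUVEC primary endothelial cells; Amount: 3,000 cells per well; Dosing: single concentration; Medium: EGM-2 growth medium on 0.1% gelatin-coated wells; Read-out basis: percent E-selectin-positive cells; Signal: immunofluorescence imaging; Control set: TNF-alpha, DMSO.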
# DENV2 CPE = DENV2-induced cell death inhibition | DENV2-infected cells, cytopathic effect rescue, plate reader | AID 651640 | CPE inhibition, % at 9.99 µM | 1.7% of 350,000 active; in the data active = CPE inhibition above about 20%, passing the limit was not always enough; inconclusive = no clear call, values can overlap the other calls; tested in BHK-21 cells;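 also: 0% = median of neutral control wells and 100% = median of positive control wells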
# Cneo AK release = Cryptococcus neoformans lysis via adenylate kinase release; 0.2% of 360,000 active; C. neoformans lysis, adenylate kinase release luminescence, 4 h; normalised: neutral wells 0, clomiphene wells 100; lysis activity, % at 15 µM;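 active = mean lysis activity across replicates of at least 80%, whatever share of replicates individually reach that level; inactive = mean lysis activity below 80%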
#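 Schedule: static 4 h at 37 °C with compound, 1 h detection; system: C. neoformans cells; benchmarks: Clomiphene as positive control; buffer or medium: fresh YPD medium; measure: luminescence rise reflecting yeast cell lysis; measured by: luminescent adenylate kinase detection reagent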
# Starred values were filed as active, the others as inactive; ? = inconclusive; · = no result given. Compounds with a hit are over-represented: about 1.8% of the library has one in this group of screens.
SMILES,UUG fidelity,E-sel inducer,DENV2 CPE,Cneo AK release
COc1ccc(CN(C)C[C@H]2Oc3ccc(NC(=O)c4ccncc4)cc3CC(=O)N([C@@H](C)CO)C[C@H]2C)cc1,·,1,0,2
C/C=C/c1cnc2c(c1)C(=O)N([C@@H](C)CO)C[C@H](C)[C@@H](CN(C)Cc1ccc3c(c1)OCO3)O2,-2,1,3,-4
COc1ccc(S(=O)(=O)Nc2ccc3c(c2)C(=O)N([C@@H](C)CO)C[C@@H](C)[C@H](CN(C)C(=O)CCCN(C)C)OCCCC[C@@H](C)O3)cc1,18,0,31*,-1
C[C@H](CO)N1C[C@H](C)[C@H](CN(C)C(=O)CCCN(C)C)OCCCC[C@H](C)Oc2ccc(NS(=O)(=O)c3ccc(Cl)cc3)cc2C1=O,15,0,41*,-4
O=C(CN(CC1CCCO1)C(=O)CNS(=O)(=O)c1ccc(F)cc1)NCc1ccc(F)cc1 (centres undefined),-15,·,3,-1
O=C(CN(CC1CCCO1)C(=O)CNS(=O)(=O)c1ccccc1)NCc1ccc(F)cc1 (centres undefined),-3,26*,2,1
Cc1cccc(C(=O)c2ccccc2C(=O)O)c1O,-22,·,·,0
Cc1cccc(C(=O)O)c1O,-2,·,67*,-1
CCNC(=O)C[C@H]1CC[C@@H]2[C@H](COC[C@@H](O)CN2C(=O)Nc2cccc(OC)c2)O1,·,0,0,0
CCc1cc(C(=O)Nc2nc(-c3ccccn3)cs2)sc1C,-26,29*,4,3
Cc1cccc(OCC(=O)Nc2ccc(N3CCN(C(=O)c4ccccc4)CC3)cc2)c1C,-11,0,43*,-1
CCc1ccc(N2CC(C(=O)Nc3ccc(F)cc3)CC2=O)cc1 (centres undefined),-4,42*,-1,3

# In the list so far, these have four or more nitrogen atoms.
SMILES,UUG fidelity,E-sel inducer,DENV2 CPE,Cneo AK release
COc1ccc(CN(C)C[C@H]2Oc3ccc(NC(=O)c4ccncc4)cc3CC(=O)N([C@@H](C)CO)C[C@H]2C)cc1,·,1,0,2
COc1ccc(S(=O)(=O)Nc2ccc3c(c2)C(=O)N([C@@H](C)CO)C[C@@H](C)[C@H](CN(C)C(=O)CCCN(C)C)OCCCC[C@@H](C)O3)cc1,18,0,31*,-1
C[C@H](CO)N1C[C@H](C)[C@H](CN(C)C(=O)CCCN(C)C)OCCCC[C@H](C)Oc2ccc(NS(=O)(=O)c3ccc(Cl)cc3)cc2C1=O,15,0,41*,-4

# Other compounds
SMILES,UUG fidelity,E-sel inducer,DENV2 CPE,Cneo AK release
Cc1cnc(NC(=O)C2CC(=O)N(c3cccc(Cl)c3)C2)s1 (centres undefined),4,0,33*,4
Cc1cnc(NC(=O)C2CC(=O)N(c3ccc4c(c3)OCCO4)C2)s1 (centres undefined),·,0,-6,·
COc1cccc(N2CC(C(=O)Nc3ccc(F)cc3)CC2=O)c1 (centres undefined),-2,0,27*,-2
COc1cccc(N2CC(C(=O)Nc3ccc(C(=O)OC(C)C)cc3)CC2=O)c1 (centres undefined),-3,·,·,6
C[C@@H]1CCCCO[C@H](CN(C)C(=O)Nc2ccc3c(c2)OCO3)[C@@H](C)CN([C@H](C)CO)C(=O)c2cc(NC(=O)C3CCCCC3)ccc2O1,2,0,·,-3
O=S(=O)(c1ccccc1)[C@@]1(c2ccccc2)C[C@@H]2ON=C(c3cccc(Br)c3)[C@@H]2C1,-12,1,·,-2
O=C(O)[C@]1(S(=O)(=O)c2ccccc2)C[C@@H]2ON=C(c3cccc(Br)c3)[C@@H]2C1,-4,·,25*,-1
C[C@H]1CN([C@@H](C)CO)C(=O)c2cc(NC(=O)CCCN(C)C)ccc2O[C@H]1CN(C)Cc1ccc(C(F)(F)F)cc1,2,42*,4,-1
C[C@@H]1CN([C@H](C)CO)C(=O)c2cc(NC(=O)CCC(F)(F)F)ccc2O[C@H]1CN(C)Cc1ccc(C(F)(F)F)cc1,20,-21,?,57
C[C@@H]1CN([C@H](C)CO)C(=O)c2cc(NC(=O)CCC(F)(F)F)ccc2O[C@@H]1CN(C)Cc1ccc(C(F)(F)F)cc1,0,52*,2,-1
C[C@H]1CN([C@@H](C)CO)C(=O)c2cc(NC(=O)CCC(F)(F)F)ccc2O[C@H]1CN(C)Cc1ccc(C(F)(F)F)cc1,-7,19,?,-5
C[C@H]1CN([C@@H](C)CO)S(=O)(=O)c2ccc(C3=CCCCC3)cc2O[C@H]1CN(C)C(=O)c1ccncc1,-4,0,6,56
C[C@@H]1CN([C@@H](C)CO)C(=O)c2cccc(NC(=O)Nc3ccccc3)c2O[C@H]1CN(C)S(=O)(=O)c1cn(C)cn1,16,0,-7,97*
C[C@H](CO)N1C[C@H](C)[C@@H](CN(C)S(=O)(=O)c2cn(C)cn2)Oc2c(NC(=O)Nc3ccccc3)cccc2C1=O,4,0,-9,97*
C[C@@H]1CN([C@H](C)CO)C(=O)c2cccc(NC(=O)Nc3ccccc3)c2O[C@H]1CN(C)S(=O)(=O)c1cn(C)cn1,-2,0,0,38
